Many of the other results were omitted from the sample, so hits are more common in it than they were.
HCMV UL50-53 inh = cytomegalovirus nuclear egress complex inhibition. HTRF UL50-UL53 interaction, normalized percent inhibition. inhibition, % (test concentration not listed). 0.15% of 190,000 active. AID 1918969; in the data active means inhibition above about 27%, passing the limit was not always enough
GIV Gai3 FP = inhibitors of GIV peptide binding to Galpha-i3, primary screen, biochemical, fluorescence polarization, FITC-GIV GBA peptide, rat Galphai3 | 90 min; hits give low values; scaled: aluminum fluoride 0%, vehicle 100% | percent of control (FP), % (concentration not given with the values) | 210,000 compounds, 0.42% hits | AID 1224905, 2016;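 active = replicate mean at 85% of control or lower, very high polarization wells dropped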;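 also: wells of about 15 µL received 100 nL stock; the first replicate is given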
GIV-Gai FP conf = GIV-Galpha-i3 inhibition, FP confirmation. shares compounds with GIV Gai3 FP. FITC-GIV peptide binding to Galphai3, fluorescence polarization; active compounds read low. fluorescence polarization, mP at 100 µM. 38% of 580 active. AID 1259350;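 active means inhibition score of 15 or more, meaning 100 minus mean polarization as percent of control over three replicates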;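 further: lower mP means peptide displaced from Galphai3 so more inhibition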
GIV-Gai AS conf = confirmation of inhibitors of GIV binding to human Galpha-i3. shares compounds with GIV Gai3 FP. AlphaScreen Galphai3-GIV binding, purified proteins, 90 min; active compounds read low. AlphaScreen counts at 100 µM. 39% of 580 active. AID 1259351;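 active means inhibition score at or above a set limit, where the score is 100 minus the three-replicate mean percent of control signal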
* marks the source's active call; other numbers are inactive results.

For COc1ccc(C2N(c3ccccc3)OC(=O)N2c2ccccc2)cc1 (stereo not drawn) the results were GIV Gai3 FP 103.
Screening COc1ccc(C2=CC(=O)N(c3ccccc3)C(c3ccccc3)O2)cc1 (stereo not drawn) returned GIV Gai3 FP 90, GIV-Gai FP conf 65 and GIV-Gai AS conf 40592.
Screening COC(=O)c1ccc2c(=O)n3nc(NCc4ccccc4)sc3nc2c1 returned HCMV UL50-53 inh 13 and GIV Gai3 FP 110.
Screening COc1ccc(/C=c2\sc3nc(-c4ccccc4)c(-c4ccccc4)n3c2=O)c(OC)c1OC returned GIV Gai3 FP 88, GIV-Gai FP conf 68 and GIV-Gai AS conf 45907.
For COc1ccc(/C=c2\sc3nc(-c4ccccc4)c(-c4ccccc4)n3c2=O)cc1OC the results were GIV Gai3 FP 106.
Cc1cc2c(cc1C)N(C(=O)C(C)C)C(C)(C)c1ssc(=S)c1-2 was read as GIV Gai3 FP 93, GIV-Gai FP conf 68 and GIV-Gai AS conf 45573.
`CCC(C)C(=O)N1c2cc(C)c(C)cc2-c2c(ssc2=S)C1(C)C` (stereo not drawn) gave GIV Gai3 FP 106.
For O=C(Nc1cccc(Cn2cccn2)c1)c1csc2ccccc12 the results were HCMV UL50-53 inh 6 and GIV Gai3 FP 96.
For CC1(C)CC(=O)C2=C(C1)OC1=C(C(=O)CC(C)(C)C1)C2c1ccc(OCC(=O)N2CCOCC2)cc1 the results were GIV Gai3 FP 104.
For COc1ccccc1/C=C/C=c1\sc2nc(-c3cc(OC)c(OC)c(OC)c3)nn2c1=O the results were GIV Gai3 FP 111.
CCOC(=O)c1c(C)[nH]c(CCC(=O)N2CCC(C)CC2)c1C was read as GIV Gai3 FP 111.
`O=C(CCN1C(=O)/C(=C/c2ccc3c(c2)OCO3)SC1=S)Nc1nc2ccccc2s1` gave HCMV UL50-53 inh -20, GIV Gai3 FP 72*, GIV-Gai FP conf 88 and GIV-Gai AS conf 35546.
`O=C(CCN1C(=O)/C(=C/c2ccc3c(c2)OCO3)SC1=S)Nc1nc(-c2ccccc2)cs1` gave HCMV UL50-53 inh -37 and GIV Gai3 FP 107.
`Cc1c2c(n3c(nc4ccccc43)c1C#N)N(CCN1CCOCC1)CC2` gave HCMV UL50-53 inh -27, GIV Gai3 FP 97, GIV-Gai FP conf 76 and GIV-Gai AS conf 30989.
Cc1c2c(n3c(nc4ccccc43)c1C#N)N(C1CCCC1)CC2 was read as HCMV UL50-53 inh -16 and GIV Gai3 FP 101.
Cc1ccc2nc(S/C=C/C(=O)c3ccccc3)[nH]c2c1 was read as HCMV UL50-53 inh -11, GIV Gai3 FP 89, GIV-Gai FP conf 62 and GIV-Gai AS conf 38936.
For O=C(/C=C/Sc1nc2cc(Cl)c(F)cc2[nH]1)c1ccccc1 the results were HCMV UL50-53 inh -21 and GIV Gai3 FP 104.
CC(=O)NN=C1CCC(=NNC(C)=O)CC1 was read as HCMV UL50-53 inh -7 and GIV Gai3 FP 98.
Screening [N-]=[N+]=c1c(=O)ccc2c(=O)c3ccccc3c(=O)c1=2 returned HCMV UL50-53 inh -128, GIV Gai3 FP 63*, GIV-Gai FP conf 44* and GIV-Gai AS conf 2044*.
For Cc1cccc(C(=O)N2CC(C)C(=O)Nc3ccccc32)c1 (stereo not drawn) the results were HCMV UL50-53 inh -15 and GIV Gai3 FP 108.

The final 3 entries of the part above are carried over, then new ones follow.
CC(=O)NN=C1CCC(=NNC(C)=O)CC1 was read as HCMV UL50-53 inh -7 and GIV Gai3 FP 98.
Screening [N-]=[N+]=c1c(=O)ccc2c(=O)c3ccccc3c(=O)c1=2 returned HCMV UL50-53 inh -128, GIV Gai3 FP 63*, GIV-Gai FP conf 44* and GIV-Gai AS conf 2044*.
For Cc1cccc(C(=O)N2CC(C)C(=O)Nc3ccccc32)c1 (stereo not drawn) the results were HCMV UL50-53 inh -15 and GIV Gai3 FP 108.
`N#C/C(=C\c1c(Oc2ccccc2)nc2ccccn2c1=O)C(=O)NCc1ccco1` gave HCMV UL50-53 inh -55, GIV Gai3 FP 81*, GIV-Gai FP conf 76 and GIV-Gai AS conf 31816.
Screening CCOc1ccc2ccccc2c1/C=C(\C#N)C(=O)NCc1ccco1 returned HCMV UL50-53 inh -26 and GIV Gai3 FP 100.
`CN1C(=O)/C(=C(/C#N)C(N)=O)c2ccccc21` gave HCMV UL50-53 inh -20.
`CCOc1ccc(C(=O)NCCOc2ccc(-c3ccc(C)cc3)nn2)cc1` gave GIV Gai3 FP 95.
For O=C(Nc1c2c(nn1-c1ccc(F)cc1)CS(=O)(=O)C2)c1ccc(S(=O)(=O)N2CCCC2)cc1 the results were GIV Gai3 FP 110.
CCOC(=O)c1ccc(-n2c(C)cc(C=C3C(=O)N(C)C(=S)N(C)C3=O)c2C)cc1 was read as HCMV UL50-53 inh -5 and GIV Gai3 FP 113.
For CCOC(=O)c1ccc(-n2c(C)cc(C=C3C(=O)NC(=S)NC3=O)c2C)cc1 the results were GIV Gai3 FP 78*, GIV-Gai FP conf 64 and GIV-Gai AS conf 10801*.
`Cc1ccc(C)n1-c1ccsc1C(=O)CC#N` gave HCMV UL50-53 inh -15 and GIV Gai3 FP 97.
